For series [1] the following is noted: room temperature; cited from earlier work.
Series [2] has as its system Caco-2 cells. Particulars: cited from earlier work.
The test system of series [3] is Caco-2 cells. As to the kind of experiment: Alamar Blue cytotoxicity assay. Type of series: cell-based. The conditions noted are these: free enhancer in KRB, 10 mM. As to the method:
(§1) Caco-2 cells were grown in T-75 flasks in Dulbecco's modified Eagle's medium (DMEM) supplemented with 10% FBS, 1% non-essential amino acids, 1% pyruvate, 1% L-glutamine, 100 U/ml penicillin and 100 μg/ml streptomycin at 37° C. in an atmosphere with 5% CO2 and in equilibrium with distilled water. The medium was changed every other day, and the cells were subcultured at 80% confluency. Cells were used in the experiments described below.
(§2) Cytotoxicity of liposomes and bio-enhancer solutions was investigated using the Alamar Blue® assay (AbD Serotec, Oxford, UK) and by determination of the release of lactate dehydrogenase (LDH) with a test kit (Sigma-Aldrich, Taufkirchen, Germany). […] The formed NADH in turn reduces a tetrazolium salt to a red-coloured product which can be determined photometrically. […]
In terms of the Alamar Blue® assay, groups of eight wells were incubated with the solutions of the bio-enhancers in five concentrations (1 μM, 10 μM, 100 μM, 1 mM and 10 mM) and the liposomal formulations in three concentrations (0.5 mM, 5 mM and 50 mM total lipid) in KRB for 2, 4, and 8 h at 37° C. […] After 4 h at 37° C., the colour change of the dye was determined at an excitation wavelength of 530 nm and an emission wavelength of 590 nm in a Fluoroskan Ascent® plate reader. […] Cell viability was expressed as follows: […]

Series [4] relates to Caco-2 cells. As to the kind of experiment: LDH release cytotoxicity assay. The conditions noted are these: free enhancer in KRB, 10 mM, 8-h versus 2-h incubation. Type of series: cell-based. As to the method:
as §1, §2
For the LDH release assay, cells were treated similar as described for the Alamar Blue® cytotoxicity assay with little changes. […] The reaction was stopped by the addition of 10 μl 1N HCl and subsequently, the colour change of the dye was measured by a Tecan microplate absorbance reader (Sunrise, Tecan, Grodig, Austria) at a wavelength of 490 nm and a reference wavelength of 700 nm. To eliminate the influence of the liposomes and the bio-enhancers on the absorbance, a blank was measured of the formulations with a concentration equal to the final assay concentration. […]

The next series deals with rats. Particulars: cited from earlier work.

In the case of “D-α-tocopheryl polyethylene glycol 400 succinate [TPGS 400]”, in series [1], the CMC entry is “around 1.5 mM”.

As for “D-α-tocopheryl polyethylene glycol 1000 succinate [TPGS 1000]”, the “Concentration at which toxicity starts in LDH release assay” value with Caco-2 cells [2] was 625 μm. Further, the “Effect on cell viability” value with Caco-2 cells [3] (2-h incubation) is recorded as “no effect”. The Cell viability result in the series with Caco-2 cells [3] (8-h incubation) is “to a minimum”. Also, the “Cell viability by LDH release (confirmation of the Alamar Blue finding)” value in the series on Caco-2 cells [4] was “confirmed”. In addition, in series [1], the CMC result is recorded as “around 0.02 mM”. In addition, the LD50 with rats is on record as greater than 7000 mg/kg.
